Values quoted from earlier work in PMC8553517 (ACS infectious diseases, 2021).

Tests used:
[1] = microsomes, 2 h; cited from earlier work
[2] = microsomes, 2 h; cited from earlier work; remark: listed apart in the source

Structure (SMILES): CC(C)Oc1cc(NC(=N)c2ccccn2)ccc1-c1ccc(-c2ccc(NC(=N)c3ccccn3)cc2OC(C)C)o1 [Compound 1]
- Human liver microsome percent remaining [1]: >50% after 120 min^c
- Mouse liver microsome percent remaining [2]: >50% after 120 min^c
